Here are results for two compounds from patent US20130109735A1 (SIMON FRASER UNIVERSITY, priority 2009, published 2013).

Sequences of proteins named here, by UniProt entry; tags and fusion partners are left off. Residues count along the entry.
UniProt O43451, 356-737 limits assumed: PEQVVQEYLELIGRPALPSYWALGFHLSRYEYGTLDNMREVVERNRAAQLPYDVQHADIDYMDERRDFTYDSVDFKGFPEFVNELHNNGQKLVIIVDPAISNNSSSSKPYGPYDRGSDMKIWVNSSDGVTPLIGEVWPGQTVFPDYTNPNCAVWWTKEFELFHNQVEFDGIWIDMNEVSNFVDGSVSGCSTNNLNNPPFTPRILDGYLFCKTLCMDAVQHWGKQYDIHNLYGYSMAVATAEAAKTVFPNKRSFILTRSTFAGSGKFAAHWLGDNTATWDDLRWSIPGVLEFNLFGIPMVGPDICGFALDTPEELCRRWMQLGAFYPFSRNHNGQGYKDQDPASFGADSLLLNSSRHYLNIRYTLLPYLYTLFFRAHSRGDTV

The term Ki denotes the dissociation constant of the complex between target and ligand, obtained from inhibition or displacement.

The assay addresses T1, recombinant N-terminal domain of Maltase-Glucoamylase (ntMGAM) (Homo sapiens, UniProt O43451).
T1 construct: recombinant N-terminal domain of Maltase-Glucoamylase (ntMGAM)
Put plainly: MGA inhibition, glucose oxidase assay with maltose as the substrate (Table 1). Format: biochemical. The procedure:
Activity of recombinant N-terminal domain of Maltase-Glucoamylase (ntMGAM) was determined using the glucose oxidase assay^22 to follow the production of glucose from maltose upon addition of the enzyme (0.8 nM). A no-inhibitor control and five different inhibitor concentrations were used in combination with 7 different maltose concentrations (ranging from 1.5 to 24 mM). A reaction time of 60 minutes at 37° C. was employed. […] Values of Ki and standard deviations were determined by the program GraFit 4.0.14 (Erithacus Software)^22 which employs nonlinear fitting of the data for each inhibitor concentration to the Michaelis-Menten equation.

Molecules are shown by their SMILES. Structures can show the parent of a compound that is named as a salt. Where two headings read alike, the source gives them in different places.

On to `O=S(=O)([O-])OC(C(O)C[Se+]1CC(O)C(O)C1CO)C(O)C(O)C(O)CO` (racemic) [Compound 46, 1,4-Dideoxy-1,4-[[2S,3S,4R,5R,6S]-2,4,5,6,7-pentahydroxy-3-(sulfooxy)heptyl]-(R/S)-epi-selenoniumylidine]-D-arabinitol Inner Salt], for which, under “MGA, maltose as the substrate, read-out: Ki”, the inhibition constant Ki is 7.2 ± 0.7 µM.
`O=S(=O)([O-])O[C@@H]([C@H](O)[C@H](O)[C@@H](O)CO)[C@H](O)C[Se@+]1C[C@@H](O)[C@H](O)[C@H]1CO` (racemic) [Compound 34]: the inhibitory constant (Ki) is 0.08 µM.
